Measurements published in article PMC6235670, “An mTOR Signaling Modulator Suppressed Heterotopic Ossification of Fibrodysplasia Ossificans Progressiva” (Stem Cell Reports, 2018).

Tested on: FOP-iMSCs
Assay: 2D chondrogenic induction of FOP-iMSCs with activin A (GAG, Alcian blue)
Type: cell-based, human
Conditions: 7 days, 1 µg/mL

## trastuzumab: ERBB2-selective neutralizing antibody
  effect on GAG in the chondrogenesis of FOP-iMSCs (ERBB2 neutralizing antibodies): no effect
